This passage reports growth results from PubChem BioAssay (NCI).

Where “and” joins values, the source holds several entries; their conditions need not be identical. Equal values may be shown once. This is a selection; strong and weak results do not stand in their true shares.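 Treatment: one concentration, 48 hours, 96-well format. Scoring: percent growth, with anything below 10 considered active.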 Calls of active or inactive are those of the source.

The assay deals with MDA-MB-468 breast. The assay is described as follows: NCI-60 one-dose screen, 48 h (100 = growth as untreated, 0 = no growth, -100 = all killed). The following applies: 10 µM.
For `Cc1ccc(CN(CCCl)CCCl)cc1`, the growth was inactive: 71.9%.

As to `Cc1ccc(NC2(C#N)CCN(Cc3ccccc3)CC2)cc1`, the growth is inactive: 102%.

Turning to `Cn1c(=O)[nH]cc(N(CCCl)CCCl)c1=O`, the growth is inactive: 92.6%.

As for `COc1cc(N(CCCl)CCCl)cc(OC)c1OC`, the growth was inactive: 79.6%.

For `Fc1cccc(CBr)c1`, the growth is inactive: 104%.

Turning to `CCC(C)(C)c1ccc(O)c(CN(CCCl)CCCl)c1`, the growth was inactive: 104%.

`O=P1(N(CCCl)CCCl)SCCCS1`: the growth was inactive: 103%.

In the case of `N#CC(C#N)=Cc1ccc2c(c1)OCO2`, the growth is inactive: 84.1% and inactive: 90.1%.

In the case of `Cc1cccc(CN(CCCl)CCCl)c1`, the growth is inactive: 82.6%.

Consider `BrCCN(CCBr)c1ccc2c(c1)Cc1ccccc1-2`, for which the growth was active: -33.2%.

In the case of `CC(=O)N(c1ccccc1)C1CCNCC1`, the growth was inactive: 116%.

Turning to `Oc1ccc(Br)cc1CN(CCCl)CCCl`, the growth was inactive: 82.7%.

As to `ClCCN1[C@@H](CCl)CC[C@@H]1c1ccccc1`, the growth was inactive: 95.5%.

In the case of `CCOP(=O)(Cl)OCC`, the growth is inactive: 113%.

`ClCCSC(SCCCl)=C(SCCCl)SCCCl`: the growth is inactive: 54.7%.

Take `OCC#CCN(CCCl)CCCl`: the growth was inactive: 89.8%.

With `CC(C)(C)C(=O)CBr`, the growth is inactive: 94.9%.

As for `Cc1ccc(N(CCCl)CCCl)cc1`, the growth is inactive: 29.8%.

Turning to `O=C(O)CCc1ccc(CSCCCl)cc1`, the growth is inactive: 103%.

In the case of `CCCCOc1ccc(N(CCCl)CCCl)cc1`, the growth was inactive: 107%.

As for `ClCCN(CCCl)Cc1ccc2c(c1)OCO2`, the growth was inactive: 67.8%.

Turning to `N#CC(C#N)=Cc1ccc(N(CCCl)CCCl)cc1`, the growth was inactive: 30.2%.

With `COc1cc(CN(CCCl)CCCl)cc(OC)c1`, the growth was inactive: 97.2%.

On to `Oc1ccc(N(CCCl)CCCl)cc1`, for which the growth was inactive: 42%.

As to `Cc1ccc2oc(=O)cc(CN(CCCl)CCCl)c2c1`, the growth was inactive: 93.9%.

On to `Cc1ccc(C(=O)N(CCCl)CCCl)cc1`, for which the growth was inactive: 95.5%.

With `Oc1ccc(O)c(CN(CCCl)CCCl)c1`, the growth was inactive: 101%.

On to `ClCCN1CCN(CCCl)CC1`, for which the growth is inactive: 93.8% and inactive: 77.2%.

As for `O=C1C(=O)N(CN(CCCl)CCCl)c2ccccc21`, the growth is inactive: 108%.

In the case of `Cc1ccc(S(=O)(=O)CN(CCBr)CCBr)cc1`, the growth was inactive: 103%.

On to `O=C(O)CCCCc1ccc(N(CCCl)CCCl)cc1`, for which the growth was inactive: 91.3%.

With `NC(=O)C1(Nc2ccccc2)CCNCC1`, the growth was inactive: 90.6%.

As to `NC(=O)C1(Nc2ccccc2)CCN(Cc2ccccc2)CC1`, the growth was inactive: 114%.

Consider `Cc1cc(O)c(CN(CC(C)Cl)CC(C)Cl)cc1C` (stereo unspecified), for which the growth was inactive: 128%.

For `CCCSP(=O)(CCl)N(CCCl)CCCl` (stereo unspecified), the growth is inactive: 95.8%.

On to `O=C(O)c1ccc(N(CCCl)CCCl)cc1`, for which the growth was inactive: 106%.
